Drawing on PubChem BioAssay AID602440 (Sanford-Burnham Center for Chemical Genomics, 2012), this text covers inhibition for 36 compounds.

By UniProt entry, the sequences of proteins in these tests, tags left out.
UniProt Q96LD8, whole entry: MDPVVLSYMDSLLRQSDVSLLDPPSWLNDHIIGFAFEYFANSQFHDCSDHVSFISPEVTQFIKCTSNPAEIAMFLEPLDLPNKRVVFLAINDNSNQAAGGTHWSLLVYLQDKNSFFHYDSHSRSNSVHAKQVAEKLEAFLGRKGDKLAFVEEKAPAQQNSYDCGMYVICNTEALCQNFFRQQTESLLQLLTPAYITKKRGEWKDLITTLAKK

One may read the inhibition as the relative decrease from the control value, in per cent.

This is a selection; strong and weak results do not stand in their true shares. Active and inactive are the calls of the source. No stated cut-off is given here; in the data, active means inhibition mostly above about 40% (no sharp cut-off); inactive means mostly below about 27%.

This test addresses Sentrin-specific protease 8 (Homo sapiens) (UniProt Q96LD8). Briefly: human SENP8 protease inhibitors, primary screen, biochemical, fluorescence, Nedd8 protein substrate, uHTS (AID 602440). Conditions: recombinant SENP8, Nedd8 substrate fluorescence; at 20 µM; active compounds read high.
In the case of `COc1ccc(OP(C)(=O)Nc2cccc(F)c2)cc1` (stereo unspecified), the inhibition is inactive: 10.6%.
`CCN(CC)CCCOC(=O)C(O)(c1ccccc1)c1ccccc1`: the inhibition is inactive: 9.9%.
As to `COc1ccccc1-c1ccccn1.O=[N+]([O-])c1cc([N+](=O)[O-])c(O)c([N+](=O)[O-])c1`, the inhibition is inactive: 15%.
The result for `CP(=O)(Nc1ccc(SC(F)(F)F)cc1)Oc1ccc(Cl)cc1` (stereo unspecified) reads inactive: 9.9%; that for `Cc1ccc(Nc2c([N+](=O)[O-])cc([N+](=O)[O-])cc2[N+](=O)[O-])cc1`, active: 48.9%; that for `Cc1cccc(C)c1OP(C)(=O)Nc1ccc(SC(F)(F)F)cc1` (stereo unspecified), inactive: 12.9%.
`CP(=O)(Oc1ccccc1)OC(c1ccccc1)C(F)(F)F` (stereo unspecified): the inhibition is inactive: 4.8%.
`CCc1ccc(OP(C)(=O)N2CCN(c3ccc([N+](=O)[O-])cc3)CC2)cc1` (stereo unspecified): the inhibition is active: 43.3%.
In the case of `CP(=O)(NC(=O)Nc1ccccc1)Oc1ccccc1` (stereo unspecified), the inhibition was inactive: 7.7%.
The result for `Cc1cc(C)cc(OP(C)(=O)Nc2ccc(SC(F)(F)F)cc2)c1` (stereo unspecified) reads inactive: 6.4%; that for `O=[N+]([O-])c1cc([N+](=O)[O-])c(O)c([N+](=O)[O-])c1.c1ccc(Oc2ccncc2)cc1`, inactive: 28%.
In the case of `CCOC(=O)c1ccc(NP(C)(=O)Oc2ccc(OC)cc2)cc1` (stereo unspecified), the inhibition is inactive: 9.9%.
Turning to `CCOP(C)(=S)SCC(=O)NC(C)C(=O)O` (stereo unspecified), the inhibition was inactive: 13%.
`CP(=O)(Nc1ccccn1)Oc1ccc(Cl)cc1` (stereo unspecified): the inhibition is inactive: 6%.
The result for `CP(=S)(Nn1cnnc1)Oc1ccccc1` (stereo unspecified) reads inactive: 16.7%; that for `CP(=O)(Nc1ccccc1Br)Oc1ccccc1` (stereo unspecified), inactive: 11.7%; that for `COc1ccccc1OP(C)(=O)Nc1ccccc1` (stereo unspecified), inactive: -2.2%.
The result for `O=[N+]([O-])c1cc([N+](=O)[O-])c(Nc2nnnn2CCO)c([N+](=O)[O-])c1` reads inactive: 35%; that for `CC1=C2N=C(C=C3N=C(C(C)=C4[N-][C@@](C)([C@@H]5N=C1[C@](C)(CCC(=O)NC[C@@H](C)OP(=O)([O-])O[C@H]1[C@@H](O)[C@@H](n6cnc7cc(C)c(C)cc76)O[C@@H]1CO)[C@H]5CC(N)=O)[C@@](C)(CC(N)=O)[C@@H]4CCC(N)=O)[C@@](C)(CC(N)=O)[C@@H]3CCC(N)=O)C(C)(C)[C@@H]2CCC(N)=O.[C-]#N.[Co+3]`, active: 95.1%.
For the compound `CCOC(=O)C(CC)C1=NC(C)(C)Cc2ccccc21.O=[N+]([O-])c1cc([N+](=O)[O-])c(O)c([N+](=O)[O-])c1` (stereo unspecified), the inhibition was inactive: 34.4%.
The result for `CN1CCCCC1COC(=O)C1(O)c2ccccc2CCc2ccccc21` (stereo unspecified) reads inactive: 15.6%; that for `COc1ccccc1OP(C)(=O)Nc1c(C)cccc1C` (stereo unspecified), inactive: -1.8%; that for `COc1ccc(-c2ccccn2)cc1.O=[N+]([O-])c1cc([N+](=O)[O-])c(O)c([N+](=O)[O-])c1`, inactive: 6.2%.
Regarding `CP(=O)(Nc1ccc(SC(F)(F)F)cc1)Oc1ccccc1` (stereo unspecified), the inhibition is inactive: 20%.
To `CCCOc1ccc(NP(C)(=O)Oc2ccc(Cl)cc2)cc1` (stereo unspecified) belongs inactive: 4.7%; to `O=[N+]([O-])c1cc([N+](=O)[O-])c(-n2nnc3ccccc32)c([N+](=O)[O-])c1`, inactive: 10.4%; to `CN(Cc1cccnc1)C(=O)COc1ccc(Cl)c(Cl)c1.O=[N+]([O-])c1cc([N+](=O)[O-])c(O)c([N+](=O)[O-])c1`, inactive: 18.8%.
The result for `O=[N+]([O-])c1cc([N+](=O)[O-])c(-c2cnn(-c3ccccc3)c2)c([N+](=O)[O-])c1` reads inactive: 30.3%.
On to `Cc1nc2ccc3ccccc3c2s1.O=[N+]([O-])c1cc([N+](=O)[O-])c(O)c([N+](=O)[O-])c1`, for which the inhibition was inactive: 27%.
The result for `CCOC(=O)c1ccc(NP(C)(=O)Oc2cc(C)cc(C)c2)cc1` (stereo unspecified) reads inactive: 6.6%; that for `Cc1cc(C)cc(OP(C)(=O)Nc2ccc(C)cc2C)c1` (stereo unspecified), inactive: 14.5%; that for `Cc1ccc(C)c(NP(C)(=O)Oc2ccccc2)c1` (stereo unspecified), inactive: 6.6%.
The result for `CP(=O)(Nc1cccc(Br)c1)Oc1ccccc1` (stereo unspecified) reads inactive: 0.6%.
As for `Cc1cc(C)cc(OP(C)(=O)Nc2ccccn2)c1` (stereo unspecified), the inhibition is inactive: -3.8%.
To `O=C(O)c1cccc(Nc2c([N+](=O)[O-])cc([N+](=O)[O-])cc2[N+](=O)[O-])c1` belongs inactive: 37.2%.
As for `CC1=NCCc2c1[nH]c1ccccc21.O=[N+]([O-])c1cc([N+](=O)[O-])c(O)c([N+](=O)[O-])c1`, the inhibition is inactive: -128%.
